Read-outs that look alike come from different tables or passages of the source.
Biological target: hTRPV3 (Homo sapiens (Human), UniProt Q8NET8)
Assay: Whole-cell patch clamp, hTRPV3 Phase 1 / Phase 2 currents
Assay type: cell-based
Excerpt: Whole-cell patch clamp experiments permit the detection of currents through the TRPV3 channel in the cell line described above. A glass electrode is brought into contact with a single cell and the membrane is then ruptured, permitting control of the voltage of the cell membrane and measurement of currents flowing across the membrane using the amplifier attached to the electrode. A perfusion system permits control of the extracellular solution, including the addition of blockers and activators of the current. The current can be activated by heating this solution to 28° C. or warmer or by addition of 20 μM 2-APB to the solution.
TRPV3 cells were induced 20-48 hours, removed from growth plates, and replated at low density (to attain good single-cell physical separation) on glass coverslips for measurement. In some cases, cells were grown in low density overnight on glass coverslips. Patch clamp recordings were made in the whole-cell mode with a holding potential of −40 mV. Every 5 seconds, a voltage ramp was applied from −120 to +100 mV, 400 ms in duration. Currents elicited were quantified at −80 mV and +80 mV. […] External solution was Ringer's solution described above.
P1 refers to the Phase 1 current for human (h) TRPV3, and P2 refers to the Phase 2 current for human (h) TRPV3. […]

Amino acid sequences for entries named in this document (tags omitted). A change or cut given only in a name is not applied to a line headed by its entry.
UniProt Q8NET8: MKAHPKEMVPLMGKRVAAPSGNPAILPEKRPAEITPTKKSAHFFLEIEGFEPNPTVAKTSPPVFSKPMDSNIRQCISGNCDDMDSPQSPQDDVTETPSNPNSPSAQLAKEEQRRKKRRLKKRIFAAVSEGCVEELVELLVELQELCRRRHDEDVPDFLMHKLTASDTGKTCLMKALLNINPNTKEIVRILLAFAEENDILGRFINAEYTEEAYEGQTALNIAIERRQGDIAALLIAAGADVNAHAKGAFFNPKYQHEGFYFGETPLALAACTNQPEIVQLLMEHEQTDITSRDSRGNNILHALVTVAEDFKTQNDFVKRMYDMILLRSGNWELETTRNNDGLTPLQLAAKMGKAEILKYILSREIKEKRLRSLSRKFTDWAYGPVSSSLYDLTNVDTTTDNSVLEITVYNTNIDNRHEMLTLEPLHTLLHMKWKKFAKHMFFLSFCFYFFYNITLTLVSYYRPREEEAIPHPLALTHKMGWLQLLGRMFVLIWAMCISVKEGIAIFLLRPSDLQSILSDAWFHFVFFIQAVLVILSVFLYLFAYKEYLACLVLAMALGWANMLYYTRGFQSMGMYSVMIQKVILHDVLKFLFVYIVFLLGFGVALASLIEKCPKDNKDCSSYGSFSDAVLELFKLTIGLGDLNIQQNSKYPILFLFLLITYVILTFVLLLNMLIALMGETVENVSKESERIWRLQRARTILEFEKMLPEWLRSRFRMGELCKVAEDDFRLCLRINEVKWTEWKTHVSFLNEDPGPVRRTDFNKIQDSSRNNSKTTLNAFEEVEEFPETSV

Structure (SMILES) | IC50 (Phase 1 current, inward, whole-cell patch clamp, read-out: hTRPV3 Patch P1 Inwd) [nM] | IC50 (hTRPV3 Patch P1 Inwd (nM)) [nM]
CN(C)C(=O)c1ccccc1N1CC[C@H](Oc2ccc(C(F)(F)F)cn2)C1 [Compound 1-48, (S)—N,N-dimethyl-2-(3-(5-(trifluoromethyl)pyridin-2-yloxy)pyrrolidin-1-yl)benzamide] | > 1000 | –
CN(C)C(=O)c1ccccc1N1CC[C@@H](Oc2ccc(C(F)(F)F)cn2)C1 [Compound 1-59, (R)—N,N-dimethyl-2-(3-(5-(trifluoromethyl)pyridin-2-yloxy)pyrrolidin-1-yl)benzamide] | – | > 1000

— US12435061B2 (priority 2020, dated 2025)
